# scFv variants of Ab-14 (light chain) against a SARS-CoV-2 spike peptide

Values reported by Li et al. 2023, doi:10.1038/s41467-023-39022-2 (FLAb copy).

Target: peptide PDVDLGDISGINAS, taken from heptad repeat 2 (HR2) of SARS-CoV-2 spike.

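The variants were designed computationally from a first round of random CDR variants and then made and measured. Several design methods are mixed in this list. The scFvs were displayed on barcoded MATa yeast, the peptide on MATalpha yeast. Binding brings cells together so that they mate, and sequencing counts the barcode pairs among the diploids. The ratio of observed to expected reads was calibrated, replicate by replicate, on BCL2-family standards whose Kd was known from biolayer interferometry. Mating was done six times.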

Ab-14 is the parent antibody, in scFv form: VH, then three GGGGS repeats, then VL. The heavy chain is unchanged in all variants.
VH: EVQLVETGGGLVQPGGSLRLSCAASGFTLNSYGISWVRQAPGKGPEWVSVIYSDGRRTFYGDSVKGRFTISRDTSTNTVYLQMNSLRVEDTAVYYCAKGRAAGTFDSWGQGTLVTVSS
VL: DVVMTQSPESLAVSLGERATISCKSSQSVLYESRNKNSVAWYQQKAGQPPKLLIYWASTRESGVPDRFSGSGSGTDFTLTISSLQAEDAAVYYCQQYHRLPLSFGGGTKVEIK

Each variant is given by its three light chain CDRs, as the data file delimits them; those of the parent are KSSQSVLYESRNKNSVA, WASTRES, QQYHRLPLS.
Variants here have at most six changes.
Values are apparent Kd, the geometric mean of the replicates that gave a signal; lower means stronger binding.
Where no diploid with the target was found in any replicate, the entry reads "nd": below detection, most likely a poor binder, though not proof of it.
Values of this round are not directly comparable with the first-round values of the same sequences.
The authors' rule: three or more of the six replicates give a measured affinity, fewer mean a poor binder.
Of ten entries with the parent sequence, four were seen in most replicates (averages 2.2 nM to 240 nM), three in one and three in none, so single entries are noisy.
A sequence that the file lists under several names has all its replicates pooled.
Empty control strains, which show no peptide, gave a signal in 4% of pairings with all light chain designs; the median was 430 nM and 95% of these signals were weaker than 38 nM. No background was subtracted. For each scFv, signals with the empty controls are counted beside the result.

- KSPQSVLYESRNKNSVA, WASTRES, DQYYRMPLS -> 320 nM (3 of 6 replicates; controls 0 of 18)
- MSSQSVLYESRNKNSVA, WASTRES, QQYHRLPLL -> nd (0 of 6 replicates; controls 0 of 18)
- KSNDSSLYESRNKNSVA, WASTRES, QQYHRLPLS -> 170 nM (3 of 6 replicates; controls 2 of 18)
- KLSQSWLYESRNKNNVA, DASQRES, QQYHRLPLS -> 400 pM (6 of 6 replicates; controls 0 of 18)
- KVSQSHLYESRNKNQVA, DASTRES, QQYHRLPLS -> 360 pM (6 of 6 replicates; controls 0 of 18)
- KSSQSVQDESRNMNSVA, WASTRES, QQYHRLPLS -> 130 nM (6 of 6 replicates; controls 0 of 18)
- KSSQSQLYESRNKNSVA, WASTTES, QQYHRLPLK -> nd (0 of 6 replicates; controls 1 of 18)
- KSSQSVLYESRNKNSVA, NASTRET, QQYHRLPLS -> 4.3 nM (6 of 6 replicates; controls 0 of 18)
- KLSQSELYESRNKNAVA, NASQRES, QQYHRLPLS -> 1.3 nM (6 of 6 replicates; controls 0 of 18)
- KVSQSEEYESRWKNSVA, NASYRES, QQYHRLPLS -> 1.8 nM (6 of 6 replicates; controls 2 of 18)
- KLQQSVMYESRNKNSVA, EASTREV, QQYHRLPLS -> 810 pM (6 of 6 replicates; controls 0 of 18)
- KSSQSVLYEDRNKNSVA, EASTRER, QQYHRIPLS -> 11 nM (6 of 6 replicates; controls 1 of 18)
- KVSQSVDYESRNKNSVA, WASHRES, QQYHRLPLS -> 12 nM (6 of 6 replicates; controls 4 of 18)
- KSSQAVLYESTNQNSVA, WASTRES, QQYHRLPLS -> 49 nM (6 of 6 replicates; controls 1 of 18)
- KLSFSVGGESRNKNSVA, DAGTRES, QQYHRLPLS -> 540 pM (6 of 6 replicates; controls 1 of 18)
- KSSQSYLAESRNKNSVA, WASTRSS, QQYHRLPLS -> 29 nM (6 of 6 replicates; controls 1 of 18)
- KLMQSVLYESRNKNSVA, HASLRES, QQYHRLPLS -> 4.2 nM (6 of 6 replicates; controls 0 of 18)
- KSSQSVLMESNNKNSVA, WASKRES, QQYHRLPLS -> 5.8 nM (6 of 6 replicates; controls 0 of 18)
- KIEQSVLYESRNKNSVA, NASTRMS, QQYHRLPLS -> 1.1 nM (6 of 6 replicates; controls 0 of 18)
- KSHISYLYESRNKNFVA, EASTRES, QQYHRLPLS -> 11 nM (6 of 6 replicates; controls 1 of 18)
- KLYQSQLYESRNKNSVA, QASQREM, QQYHRLPLS -> 2.4 nM (6 of 6 replicates; controls 0 of 18)
- KSSISYLYESRNQNSVA, AASTRES, QQYHRLPLS -> 4.4 nM (6 of 6 replicates; controls 0 of 18)
- KFSQSFLYESRNKNSVA, EASTRES, QQYHRLPLS -> 570 pM (6 of 6 replicates; controls 0 of 18)
- KSSQSVLYESRNKNSVA, YDSTREQ, QQYHHLPLS -> 430 nM (5 of 6 replicates; controls 2 of 18)
- KSSQSVNTESRNFNSVA, WASTRES, QQYHRLPLS -> 62 nM (6 of 6 replicates; controls 0 of 18)
- KVSQSKLYESRQKNSVA, NASQREL, QQYHRLPLS -> 2.4 nM (6 of 6 replicates; controls 1 of 18)
- KSQQSVLYESGNKNSIA, DAMTRES, QQYHRLPLS -> 1.4 nM (6 of 6 replicates; controls 0 of 18)
- KISQSVLGEQRAQNSVA, EASTRES, QQYHRLPLS -> 30 nM (4 of 6 replicates; controls 0 of 18)
- KSNQSVLYESRNKQSVA, WASTRES, QQYHRLPLR -> nd (0 of 6 replicates; controls 2 of 18)
- KSSQADLYESNNSNSVA, WASTRES, QQYHRLPLS -> 35 nM (6 of 6 replicates; controls 1 of 18)
- KNSQSVLFEHRNKNSVA, DASSRES, QQYHRLPLS -> 2.1 nM (6 of 6 replicates; controls 1 of 18)
- KLSQSVLMEWRNKNSVA, DASTRES, QQYHRLPLS -> 1.1 nM (6 of 6 replicates; controls 1 of 18)
- KSSQAVLYESANYNSVA, WASTRES, QQYHRLPLS -> 380 nM (3 of 6 replicates; controls 1 of 18)
- KSSQSVLHESRNKNSVA, WASTRES, QQYHRLPLS -> 140 nM (2 of 6 replicates; controls 0 of 18)
- KIQQSVLYESRNKNSVA, GASTRES, QQYHRLPLS -> 1.1 nM (6 of 6 replicates; controls 0 of 18)
- KLSWSNLYESRNCNSVA, NASTREE, QQYHRLPLS -> 2.4 nM (6 of 6 replicates; controls 3 of 18)
- KASQSYHYESRNKNSVA, GASTRES, QQYHRLPLS -> 1.3 nM (6 of 6 replicates; controls 1 of 18)
- KLSQSVLYESRNKNSVA, GASTREV, QQYHRLPLS -> 560 pM (6 of 6 replicates; controls 4 of 18)
- KSSQSVAMESRNDNSVA, DASTRES, QQYHRLPLS -> 1.2 nM (6 of 6 replicates; controls 0 of 18)
- KLYQSVPYESRNKNSVA, NASQRES, QQYHRLPLS -> 2.0 nM (6 of 6 replicates; controls 0 of 18)
- KLSESWLYESRNKNSVA, NASTRES, QQYHRLPLS -> 920 pM (6 of 6 replicates; controls 1 of 18)
- KSPQSVLYELRENNSVA, WASTRES, QQYHRLPLS -> nd (0 of 6 replicates; controls 0 of 18)
- KLDQSQLYESRNKNSVA, GASTRES, QQYHRLPLS -> 300 pM (6 of 6 replicates; controls 0 of 18)
- KLSQSVLYESRNKNSVA, NASTRYQ, QQYHRLPLS -> 1.2 nM (6 of 6 replicates; controls 3 of 18)
- KSSQSVLYESLNKNSVA, EASTRES, QQYHRLPLS -> 13 nM (11 of 12 replicates; controls 1 of 36)
- KISQSDLYESRNKNSVA, WASTRES, QQYHRYPLS -> 590 nM (2 of 6 replicates; controls 1 of 18)
- KLRQSTLYESRNQNSVA, GASTRES, QQYHRLPLS -> 400 pM (6 of 6 replicates; controls 1 of 18)
- KLMQSEEYESRNKNSVA, NASQRES, QQYHRLPLS -> 1.0 nM (6 of 6 replicates; controls 1 of 18)
- KDSQSVLYESRNKNSVA, NASTRES, QQYHRLPLS -> 1.6 nM (6 of 6 replicates; controls 2 of 18)
- KSSQSWLYESRNKNSVA, GASQRES, QQYHRLPLS -> 420 pM (6 of 6 replicates; controls 1 of 18)
- KSSQSVEQESRNKNSVA, GASTRES, QQYHRLPNS -> nd (0 of 6 replicates; controls 0 of 18)

The first 6 entries again:

{"CDR-L1": "KSPQSVLYESRNKNSVA", "CDR-L2": "WASTRES", "CDR-L3": "DQYYRMPLS", "Kd (apparent)": "320 nM", "detected": "3/6", "control signals": "0/18"}
{"CDR-L1": "MSSQSVLYESRNKNSVA", "CDR-L2": "WASTRES", "CDR-L3": "QQYHRLPLL", "Kd (apparent)": "nd", "detected": "0/6", "control signals": "0/18"}
{"CDR-L1": "KSNDSSLYESRNKNSVA", "CDR-L2": "WASTRES", "CDR-L3": "QQYHRLPLS", "Kd (apparent)": "170 nM", "detected": "3/6", "control signals": "2/18"}
{"CDR-L1": "KLSQSWLYESRNKNNVA", "CDR-L2": "DASQRES", "CDR-L3": "QQYHRLPLS", "Kd (apparent)": "400 pM", "detected": "6/6", "control signals": "0/18"}
{"CDR-L1": "KVSQSHLYESRNKNQVA", "CDR-L2": "DASTRES", "CDR-L3": "QQYHRLPLS", "Kd (apparent)": "360 pM", "detected": "6/6", "control signals": "0/18"}
{"CDR-L1": "KSSQSVQDESRNMNSVA", "CDR-L2": "WASTRES", "CDR-L3": "QQYHRLPLS", "Kd (apparent)": "130 nM", "detected": "6/6", "control signals": "0/18"}